Test results from patent publication US8633225B2, “Piperidinium compounds and cosmetic compositions containing them” (Beiersdorf AG, priority 2006, dated 2014).

Legend:
[1] = toxicological harmlessness / tolerance; statement only, no test described; details: qualitative statement
[2] = inhibiting or reducing perspiration (antihidrotic effect); statement only, no test described; details: qualitative statement

SMILES | toxicological assessment [1] | efficacy in inhibiting perspiration [2]
C[N+]1(C)CCC(OC(=O)C(O)(c2ccccc2)C2CCCC2)CC1 (stereo not drawn) | toxicologically harmless | 
C[N+]1(C)CCC(OC(=O)C(O)(c2ccccc2)C2CCCCC2)CC1 (stereo not drawn) | toxicologically harmless | effectiveness in reducing or even inhibiting perspiration
